Source: US20060079453A1, “Hla binding peptides and their uses” (priority 2002, published 2006)

Amino acid sequences for entries named in this document (tags omitted). Residues count along the entry.
UniProt Q30154, 30-266: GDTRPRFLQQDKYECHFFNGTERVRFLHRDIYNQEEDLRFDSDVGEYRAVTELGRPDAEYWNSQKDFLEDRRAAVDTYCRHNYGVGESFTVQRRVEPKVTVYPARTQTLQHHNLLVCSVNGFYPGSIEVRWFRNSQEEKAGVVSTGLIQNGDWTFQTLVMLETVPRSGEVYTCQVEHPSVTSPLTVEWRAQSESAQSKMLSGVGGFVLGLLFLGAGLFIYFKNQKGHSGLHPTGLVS
UniProt P79483, 30-266: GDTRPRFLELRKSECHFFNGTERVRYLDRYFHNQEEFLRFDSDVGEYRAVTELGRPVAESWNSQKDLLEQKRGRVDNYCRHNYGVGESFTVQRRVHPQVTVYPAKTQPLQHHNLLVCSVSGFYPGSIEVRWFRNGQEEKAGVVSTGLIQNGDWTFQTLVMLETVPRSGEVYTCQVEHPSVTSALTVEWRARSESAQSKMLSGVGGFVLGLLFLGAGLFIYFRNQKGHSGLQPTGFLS

Assays:
Test in all cases: biochemical
Type in all cases: binding
HLA-DR DRB1*0401 (DR4) = HLA-DR DRB1*0401 (DR4) (Homo sapiens, UniProt P01903+P01911, A100K/A169T/F76Y/I96L/K127E/L162R/M171V/N62H/P40V/Q125Y/R42H/S133A/S149N/S66Y/V115G/V209L/W38E)
HLA-DR DRB5*0101 (DR51) = HLA-DR DRB5*0101 (DR51) (Homo sapiens, UniProt P01903+Q30154); settings: DRB5 *0101
HLA-DR DRB1*0802 (DR8) = HLA-DR DRB1*0802 (DR8) (Homo sapiens, UniProt P01903+P01911, A100R/A103L/A169T/F76Y/H45Y/I96F/K41T/L162R/M171V/P40S/Q125H/Q178H/Q39Y/Q99D/R218S/R42G/S66Y/V115G/W38E)
HLA-DR DRB3*0101 (DR52) = HLA-DR DRB3*0101 (DR52) (Homo sapiens, UniProt P01903+P79483)
HLA-DR DRB4*0101 (DR53) = HLA-DR DRB4*0101 (DR53) (Homo sapiens, UniProt P01903+P13762, G164S); settings: DRB4 *0101
HLA-DR DRB1*1101 (DR11) = HLA-DR DRB1*1101 (DR11) (Homo sapiens, UniProt P01903+P01911, A100R/A169T/A87E/I96F/K41T/L162R/M171V/P40S/Q125H/Q178H/Q39Y/Q99D/R42S/S66Y/T262R/V115G/W38E); settings: DRB1 *1101
HLA-DR DRB1*0901 (DR9) = HLA-DR DRB1*0901 (DR9) (Homo sapiens, UniProt P01903+P01911, A100R/A103E/D57H/D86V/F55Y/F60I/F76Y/I96F/K127E/L162R/M171V/P40D/Q125H/Q99R/R33Q/R42F/S133A/S66N/T210M/V115G/W38K/Y107V/Y59G/Y89S); settings: DRB1 *0901
HLA-DR DRB1*0701 (DR7) = HLA-DR DRB1*0701 (DR7) (Homo sapiens, UniProt P01903+P01911, A100R/A102G/A103Q/D57E/D86V/E43K/F76Y/K127E/L162R/M171V/P40G/Q125H/Q99D/R33Q/R42Y/R54Q/S133A/S66F/T210M/V115G/Y107V/Y59L/Y89S); settings: DRB1 *0701

| SMILES | IC50 (HLA-DR DRB1*0401 (DR4); DRB1 *0401) [nM] | IC50 (HLA-DR DRB5*0101 (DR51)) [nM] | further results |
| --- | --- | --- | --- |
| CC[C@H](C)[C@H](NC(=O)[C@H](CO)NC(=O)[C@H](CC(C)C)NC(=O)[C@H](CCC(N)=O)NC(=O)[C@H](CC(C)C)NC(=O)[C@H](CCC(N)=O)NC(=O)[C@H](CCCNC(=N)N)NC(=O)[C@H](Cc1c[nH]cn1)NC(=O)[C@@H](N)CC(=O)O)C(=O)N[C@@H](CO)C(=O)N[C@@H](CO)C(=O)N[C@@H](CS)C(=O)N[C@@H](CC(C)C)C(=O)N[C@@H](CCC(N)=O)C(=O)N[C@@H](CCC(N)=O)C(=O)N[C@@H](CC(C)C)C(=O)N[C@@H](CO)C(=O)N[C@@H](CC(C)C)C(=O)N[C@@H](CC(C)C)C(=O)N[C@@H](CCSC)C(=O)O | 1320 |  |  |
| CC(C)C[C@H](NC(=O)[C@H](CCC(=O)O)NC(=O)[C@H](CCCCN)NC(=O)[C@H](C)NC(=O)[C@H](CC(C)C)NC(=O)[C@@H](NC(=O)[C@H](CO)NC(=O)[C@H](CCCNC(=N)N)NC(=O)[C@@H](N)CC(=O)O)C(C)C)C(=O)N[C@@H](CCCCN)C(=O)N[C@@H](Cc1ccccc1)C(=O)N[C@H](C(=O)N[C@H](C(=O)N[C@@H](CC(C)C)C(=O)N[C@H](C(=O)O)C(C)C)[C@@H](C)O)C(C)C | 569 |  |  |
| CC(C)C[C@H](NC(=O)[C@H](Cc1ccc(O)cc1)NC(=O)[C@H](CO)NC(=O)[C@H](Cc1ccc(O)cc1)NC(=O)[C@@H](N)CC(=O)O)C(=O)N[C@@H](CCC(N)=O)C(=O)N[C@@H](CC(=O)O)C(=O)N[C@@H](CO)C(=O)N[C@@H](CC(=O)O)C(=O)N1CCC[C@H]1C(=O)N[C@@H](CC(=O)O)C(=O)N[C@@H](CO)C(=O)N[C@@H](Cc1ccccc1)C(=O)N[C@@H](CCC(N)=O)C(=O)N[C@@H](CC(=O)O)C(=O)O |  | > 40000 |  |
| CC[C@H](C)[C@H](NC(=O)CNC(=O)[C@H](CC(C)C)NC(=O)[C@H](CC(C)C)NC(=O)[C@H](CCCNC(=N)N)NC(=O)[C@H](CO)NC(=O)[C@@H](NC(=O)[C@H](Cc1ccc(O)cc1)NC(=O)[C@@H]1CCCN1C(=O)[C@H](CO)NC(=O)CNC(=O)[C@@H](NC(=O)CN)C(C)C)C(C)C)C(=O)N[C@@H](CS)C(=O)N[C@@H](CC(C)C)C(=O)O |  | 14200 | IC50 (HLA-DR DRB1*0802 (DR8)): 1320 nM |
| CC[C@H](C)[C@H](N)C(=O)NCC(=O)N[C@@H](Cc1ccc(O)cc1)C(=O)N[C@@H](Cc1ccc(O)cc1)C(=O)N[C@@H](CC(=O)O)C(=O)N[C@@H](C)C(=O)N[C@@H](CCC(N)=O)C(=O)N[C@@H](CCCCN)C(=O)N[C@@H](CC(C)C)C(=O)N[C@@H](CC(C)C)C(=O)N[C@@H](CCC(=O)O)C(=O)N[C@@H](CCCCN)C(=O)N[C@@H](CCSC)C(=O)NCC(=O)NCC(=O)O |  | 506 | IC50 (HLA-DR DRB3*0101 (DR52)): 17300 nM |
| CC(C)C[C@H](NC(=O)[C@H](CCCCN)NC(=O)[C@H](CC(C)C)NC(=O)[C@@H](N)CCCCN)C(=O)N[C@@H](Cc1ccc(O)cc1)C(=O)N[C@H](C(=O)NCC(=O)N[C@@H](CCC(=O)O)C(=O)N[C@@H](C)C(=O)N[C@H](C(=O)N[C@@H](CCCNC(=N)N)C(=O)N[C@H](C(=O)NCC(=O)N[C@@H](CC(=O)O)C(=O)N[C@@H](CCCNC(=N)N)C(=O)O)[C@@H](C)O)[C@@H](C)O)[C@@H](C)O |  | 731 |  |
| CC(C)C[C@H](NC(=O)[C@H](CCC(N)=O)NC(=O)[C@H](CCC(N)=O)NC(=O)[C@H](Cc1ccccc1)NC(=O)[C@H](C)NC(=O)[C@H](CCCNC(=N)N)NC(=O)[C@@H](N)CC(C)C)C(=O)N[C@@H](Cc1ccccc1)C(=O)N[C@@H](CC(C)C)C(=O)N[C@@H](CC(N)=O)C(=O)N[C@H](C(=O)N[C@@H](CC(C)C)C(=O)N[C@@H](CO)C(=O)N[C@@H](Cc1ccccc1)C(=O)N[C@H](C(=O)O)C(C)C)[C@@H](C)O |  | 253 |  |
| CSCC[C@H](N)C(=O)N[C@@H](CO)C(=O)N[C@@H](Cc1ccc(O)cc1)C(=O)N[C@@H](CC(N)=O)C(=O)N[C@@H](CC(C)C)C(=O)N[C@@H](CC(C)C)C(=O)NCC(=O)N[C@@H](Cc1ccccc1)C(=O)N[C@@H](CC(C)C)C(=O)N[C@@H](CCC(N)=O)C(=O)N[C@@H](CCCNC(=N)N)C(=O)N[C@@H](CO)C(=O)N[C@@H](CO)C(=O)N[C@@H](CC(N)=O)C(=O)N[C@H](C(=O)O)[C@@H](C)O | 1150 |  |  |
| CC[C@H](C)[C@H](NC(=O)[C@H](C)NC(=O)[C@H](CCC(N)=O)NC(=O)[C@H](CCCNC(=N)N)NC(=O)[C@H](CC(C)C)NC(=O)[C@H](C)NC(=O)[C@@H](NC(=O)[C@H](Cc1c[nH]cn1)NC(=O)[C@H](Cc1c[nH]cn1)NC(=O)[C@@H]1CCCN1)[C@@H](C)O)C(=O)N[C@@H](CC(C)C)C(=O)N[C@@H](CO)C(=O)N[C@@H](Cc1c[nH]c2ccccc12)C(=O)NCC(=O)N[C@@H](CCC(=O)O)C(=O)N[C@@H](CC(C)C)C(=O)N[C@@H](CCSC)C(=O)N[C@H](C(=O)N[C@@H](CC(C)C)C(=O)N[C@@H](C)C(=O)O)[C@@H](C)O |  |  | IC50 (HLA-DR DRB1*0401 (DR4)): 166 nM |
| CC(C)C[C@H](NC(=O)CNC(=O)[C@H](Cc1ccc(O)cc1)NC(=O)[C@H](CC(N)=O)NC(=O)[C@H](CCCCN)NC(=O)[C@H](CC(C)C)NC(=O)[C@H](CC(C)C)NC(=O)[C@H](C)NC(=O)[C@H](CC(=O)O)NC(=O)[C@H](CC(=O)O)NC(=O)[C@H](CC(N)=O)NC(=O)[C@H](Cc1c[nH]cn1)NC(=O)[C@H](CO)NC(=O)[C@H](CC(N)=O)NC(=O)[C@@H](N)[C@@H](C)O)C(=O)O |  | > 13000 | IC50 (HLA-DR DRB4*0101 (DR53)): > 138000 nM; IC50 (HLA-DR DRB1*1101 (DR11)): > 15400 nM; IC50 (HLA-DR DRB1*0901 (DR9)): > 59500 nM; IC50 (HLA-DR DRB1*0802 (DR8)): > 33300 nM; IC50 (HLA-DR DRB1*0701 (DR7)): 246000 nM; IC50 (HLA-DR DRB3*0101 (DR52)): 130000 nM |

Where two headings read alike, the source gives them in different places.
